Results from PMC4228444 (BMC Complementary and Alternative Medicine, 2013).

Assays:
[1] = test system: B16-F10 mouse melanocytes; experiment: In vitro cytotoxicity assay (XTT), B16-F10; conditions: B16-F10 cells
Method: (§1) The mouse melanocytes (B16-F10) cells were cultured in a complete Minimum Essential Eagle’s Medium (MEM) whereas the human U937 cells were cultured in Roswell Park Memorial Institute (RPMI) containing 10% fetal bovine serum (FBS) and 1% gentamycin. B16-F10 (10^5 cells per well) and U937 (10^6 cells per well) were seeded into a 96-well plate. After an overnight incubation at 37°C in 5% CO2 and a humidified atmosphere, the extract, compounds and the positive control (actinomycin D) were added to the cells. […] The highest concentration of positive control (0.05 μg/ml) was serially diluted to eight consecutive wells. The plate was then incubated at 37°C in 5% CO2, and a humidified atmosphere after which the toxic effects of the extracts were assayed using the XTT (sodium 3’-[1-(phenyl amino-carbonyl)-3,4-tetrazolium]-bis-[4-methoxy-6-nitrobenzene sulfonic acid hydrate) cytotoxicity assay. […] The optical densities of the wells were measured at 450 nm (690 nm reference wavelength) using BIOTEK Power-wave XS multi well reader (A.D.P., Weltevreden Park, South Africa). By referring to the control (medium with DMSO), the cell survival rate was assessed.

[2] = test system: U937 human macrophage; experiment: In vitro cytotoxicity assay (XTT), U937; conditions: U937 cells
Method: as §1

myricitrin was tested, and the Toxicity in words [1] was “did not show any toxicity” and the Toxicity in words [2] was “did not show any toxicity”.
